Measured values: patent US20250134864A1, “METHODS OF WEIGHT LOSS AND PRESERVING SKELETAL MUSCLE MASS” (published 2025)

Experiment: Phase 2a trial: liver fat content by MRI-PDFF
Settings: for Non-responder (liver fat by MRI-PDFF) / Responder (>30% liver fat reduction by MRI-PDFF): Day 61; for Relative reduction in liver fat: overall population; for Placebo-corrected mean percent change from baseline in liver fat (MRI-PDFF): range over doses
[1] = 150 mg once daily oral, FAS population
[2] = 150 mg once daily oral, HbA1c 5.7%-9.0% subgroup
[3] = 150 mg, HbA1c 5.7% to 9.0% Subgroup
[4] = 300 mg once daily oral, FAS population
[5] = 300 mg once daily oral, HbA1c 5.7%-9.0% subgroup
[6] = 300 mg, HbA1c 5.7% to 9.0% Subgroup
[7] = 450 mg once daily oral, FAS population
[8] = 450 mg once daily oral, HbA1c 5.7%-9.0% subgroup
[9] = 450 mg, HbA1c 5.7% to 9.0% Subgroup

Cn1c(COc2ccc([N+](=O)[O-])cc2[N+](=O)[O-])cnc1[N+](=O)[O-]
Non-responder (liver fat by MRI-PDFF) [1]: 10 (50.0%)
Responder (>30% liver fat reduction by MRI-PDFF) [1]: 40%
Responder (>30% liver fat reduction by MRI-PDFF) (150 mg once daily oral, FAS population, listed as CM1): 8 (40.0%)
Non-responder (liver fat by MRI-PDFF) [2]: 3 (42.9%)
Responder (>30% liver fat reduction by MRI-PDFF) [2]: 43%
Responder (>30% liver fat reduction by MRI-PDFF) (150 mg once daily oral, HbA1c 5.7%-9.0% subgroup, listed as CM1): 3 (42.9%)
MRI-Proton Density Fat Fraction, Day 61, Mean (150 mg, All Subjects): 13.7%
MRI-Proton Density Fat Fraction, Day 61, Median (150 mg, All Subjects): 12.7%
MRI-Proton Density Fat Fraction, Day 61 − Baseline, LS Mean (150 mg, All Subjects): −4.64%
MRI-Proton Density Fat Fraction, Day 61 − Baseline, Mean (150 mg, All Subjects): −5.0%
MRI-Proton Density Fat Fraction, Day 61 − Baseline, Median (150 mg, All Subjects): −5.8%
MRI-Proton Density Fat Fraction, Difference in LS Mean, Compound 1 − Placebo, Day 61 (150 mg, All Subjects): −5.21%
MRI-Proton Density Fat Fraction, Day 61, Mean [3]: 16.2%
MRI-Proton Density Fat Fraction, Day 61, Median [3]: 19.0%
MRI-Proton Density Fat Fraction, Day 61 − Baseline, LS Mean [3]: −5.35%
MRI-Proton Density Fat Fraction, Day 61 − Baseline, Mean [3]: −6.6%
MRI-Proton Density Fat Fraction, Day 61 − Baseline, Median [3]: −8.0%
MRI-Proton Density Fat Fraction, Difference in LS Mean, Compound 1 − Placebo, Day 61 [3]: −5.83%
Non-responder (liver fat by MRI-PDFF) [4]: 5 (23.8%)
Responder (>30% liver fat reduction by MRI-PDFF) [4]: 71%
Responder (>30% liver fat reduction by MRI-PDFF) (300 mg once daily oral, FAS population, listed as CM1): 15 (71.4%)
Non-responder (liver fat by MRI-PDFF) [5]: 1 (12.5%)
Responder (>30% liver fat reduction by MRI-PDFF) [5]: 75%
Responder (>30% liver fat reduction by MRI-PDFF) (300 mg once daily oral, HbA1c 5.7%-9.0% subgroup, listed as CM1): 6 (75.0%)
MRI-Proton Density Fat Fraction, Day 61, Mean (300 mg, All Subjects): 11.2%
MRI-Proton Density Fat Fraction, Day 61, Median (300 mg, All Subjects): 10.4%
MRI-Proton Density Fat Fraction, Day 61 − Baseline, LS Mean (300 mg, All Subjects): −6.21%
MRI-Proton Density Fat Fraction, Day 61 − Baseline, Mean (300 mg, All Subjects): −6.2%
MRI-Proton Density Fat Fraction, Day 61 − Baseline, Median (300 mg, All Subjects): −5.9%
MRI-Proton Density Fat Fraction, Difference in LS Mean, Compound 1 − Placebo, Day 61 (300 mg, All Subjects): −6.77%
MRI-Proton Density Fat Fraction, Day 61, Mean [6]: 14.0%
MRI-Proton Density Fat Fraction, Day 61, Median [6]: 16.1%
MRI-Proton Density Fat Fraction, Day 61 − Baseline, LS Mean [6]: −6.41%
MRI-Proton Density Fat Fraction, Day 61 − Baseline, Mean [6]: −7.1%
MRI-Proton Density Fat Fraction, Day 61 − Baseline, Median [6]: −9.0%
MRI-Proton Density Fat Fraction, Difference in LS Mean, Compound 1 − Placebo, Day 61 [6]: −6.89%
Non-responder (liver fat by MRI-PDFF) [7]: 5 (27.8%)
Responder (>30% liver fat reduction by MRI-PDFF) [7]: 72%
Responder (>30% liver fat reduction by MRI-PDFF) (450 mg once daily oral, FAS population, listed as CM1): 13 (72.2%)
Non-responder (liver fat by MRI-PDFF) [8]: 1 (14.3%)
Responder (>30% liver fat reduction by MRI-PDFF) [8]: 86%
Responder (>30% liver fat reduction by MRI-PDFF) (450 mg once daily oral, HbA1c 5.7%-9.0% subgroup, listed as CM1): 6 (85.7%)
MRI-Proton Density Fat Fraction, Day 61, Mean (450 mg, All Subjects): 11.2%
MRI-Proton Density Fat Fraction, Day 61, Median (450 mg, All Subjects): 8.8%
MRI-Proton Density Fat Fraction, Day 61 − Baseline, LS Mean (450 mg, All Subjects): −6.03%
MRI-Proton Density Fat Fraction, Day 61 − Baseline, Mean (450 mg, All Subjects): −6.0%
MRI-Proton Density Fat Fraction, Day 61 − Baseline, Median (450 mg, All Subjects): −5.1%
MRI-Proton Density Fat Fraction, Difference in LS Mean, Compound 1 − Placebo, Day 61 (450 mg, All Subjects): −6.60%
MRI-Proton Density Fat Fraction, Day 61, Mean [9]: 10.7%
MRI-Proton Density Fat Fraction, Day 61, Median [9]: 8.8%
MRI-Proton Density Fat Fraction, Day 61 − Baseline, LS Mean [9]: −6.97%
MRI-Proton Density Fat Fraction, Day 61 − Baseline, Mean [9]: −6.5%
MRI-Proton Density Fat Fraction, Day 61 − Baseline, Median [9]: −4.7%
MRI-Proton Density Fat Fraction, Difference in LS Mean, Compound 1 − Placebo, Day 61 [9]: −7.45%
Non-responder (liver fat by MRI-PDFF) (All CM1 doses, FAS population): 20 (33.9%)
Non-responder (liver fat by MRI-PDFF) (All CM1 doses, HbA1c 5.7%-9.0% subgroup): 5 (22.74%)
Relative reduction in liver fat (high dose (450 mg)): 40%
Relative reduction in liver fat (low dose (150 mg)): 33%
Relative reduction in liver fat (mid dose (300 mg)): 43%
Liver volume, SAT, and CAP score (overall group and subgroup with elevated HbA1c): Improvement
Placebo-corrected mean percent change from baseline in liver fat (MRI-PDFF) (elevated HbA1c subgroup): −42% to −50
Placebo-corrected mean percent change from baseline in liver fat (MRI-PDFF) (subjects overall): −33% to 43
